Results as given in patent US5521088A, “Alcohol acetyltransferase genes and use thereof” (Kirin Beer Kabushiki Kaisha, priority 1992, dated 1996).

The chains behind the UniProt entries cited, without tags or fusion partners. Where a name states a change or a piece, a line headed by the entry shows the natural chain unless it says otherwise.
UniProt P40353: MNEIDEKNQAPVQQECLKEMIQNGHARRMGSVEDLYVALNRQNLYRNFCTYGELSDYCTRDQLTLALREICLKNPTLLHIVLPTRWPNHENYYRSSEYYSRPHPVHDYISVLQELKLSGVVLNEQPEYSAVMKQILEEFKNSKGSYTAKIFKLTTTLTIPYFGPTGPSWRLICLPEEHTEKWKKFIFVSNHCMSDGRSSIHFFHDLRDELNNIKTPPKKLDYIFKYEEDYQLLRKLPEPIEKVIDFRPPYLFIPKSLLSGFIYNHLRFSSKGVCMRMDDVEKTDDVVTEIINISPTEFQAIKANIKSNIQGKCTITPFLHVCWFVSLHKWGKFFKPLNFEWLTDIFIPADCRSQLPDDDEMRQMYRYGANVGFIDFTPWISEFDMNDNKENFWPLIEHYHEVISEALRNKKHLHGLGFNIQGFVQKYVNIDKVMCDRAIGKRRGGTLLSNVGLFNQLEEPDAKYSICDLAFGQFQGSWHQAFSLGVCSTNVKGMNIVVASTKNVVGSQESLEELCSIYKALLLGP

The substances below were run against AATase (Saccharomyces cerevisiae, UniProt P40353, N391K/T84I) (assay: Effects of various inhibitors on AATase enzyme activity). Details: inhibitor 1 mM in reaction buffer; None = 100.
Format: biochemical

Substance | Relative activity (%)
HgCl2 | 0
KCl | 98.6
FeCl3 | 54.5
CUSO4 | 0
MgCl2 | 86.2
ZnCl2 | 12.7
SnCl2 | 52.0
CoCl2 | 37.6
CdCl2 | 3.1
NiCl3 | 22.3
MnCl2 | 53.3
CaCl2 | 87.7
BaCl2 | 73.7
